Experimental data taken from ChEMBL document CHEMBL5518170, “Dual target PARP1/EZH2 inhibitors inducing excessive autophagy and producing synthetic lethality for triple-negative breast cancer therapy” (Eur J Med Chem, 2024).

By UniProt entry, the sequences of proteins in these tests, tags left out.
UniProt Q15910, whole entry, looked up: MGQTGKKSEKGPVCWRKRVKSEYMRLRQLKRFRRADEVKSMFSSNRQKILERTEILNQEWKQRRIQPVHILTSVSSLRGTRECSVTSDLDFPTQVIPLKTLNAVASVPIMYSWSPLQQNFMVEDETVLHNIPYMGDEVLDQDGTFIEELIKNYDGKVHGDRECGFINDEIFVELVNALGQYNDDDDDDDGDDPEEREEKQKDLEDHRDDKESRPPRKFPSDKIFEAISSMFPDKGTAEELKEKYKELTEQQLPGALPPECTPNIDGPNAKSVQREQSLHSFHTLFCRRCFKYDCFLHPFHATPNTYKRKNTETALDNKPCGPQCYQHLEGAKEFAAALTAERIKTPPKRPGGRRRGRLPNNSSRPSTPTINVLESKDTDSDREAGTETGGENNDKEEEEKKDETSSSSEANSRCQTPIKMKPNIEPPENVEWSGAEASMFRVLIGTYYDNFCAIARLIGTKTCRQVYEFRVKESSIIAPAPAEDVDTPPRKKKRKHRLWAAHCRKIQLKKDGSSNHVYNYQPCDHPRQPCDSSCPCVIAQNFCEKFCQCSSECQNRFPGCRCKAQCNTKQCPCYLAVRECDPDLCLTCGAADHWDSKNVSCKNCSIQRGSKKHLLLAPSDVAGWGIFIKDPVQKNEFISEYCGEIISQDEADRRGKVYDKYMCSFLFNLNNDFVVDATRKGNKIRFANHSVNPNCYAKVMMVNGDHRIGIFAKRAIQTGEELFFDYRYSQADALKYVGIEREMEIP
UniProt P09874, whole entry: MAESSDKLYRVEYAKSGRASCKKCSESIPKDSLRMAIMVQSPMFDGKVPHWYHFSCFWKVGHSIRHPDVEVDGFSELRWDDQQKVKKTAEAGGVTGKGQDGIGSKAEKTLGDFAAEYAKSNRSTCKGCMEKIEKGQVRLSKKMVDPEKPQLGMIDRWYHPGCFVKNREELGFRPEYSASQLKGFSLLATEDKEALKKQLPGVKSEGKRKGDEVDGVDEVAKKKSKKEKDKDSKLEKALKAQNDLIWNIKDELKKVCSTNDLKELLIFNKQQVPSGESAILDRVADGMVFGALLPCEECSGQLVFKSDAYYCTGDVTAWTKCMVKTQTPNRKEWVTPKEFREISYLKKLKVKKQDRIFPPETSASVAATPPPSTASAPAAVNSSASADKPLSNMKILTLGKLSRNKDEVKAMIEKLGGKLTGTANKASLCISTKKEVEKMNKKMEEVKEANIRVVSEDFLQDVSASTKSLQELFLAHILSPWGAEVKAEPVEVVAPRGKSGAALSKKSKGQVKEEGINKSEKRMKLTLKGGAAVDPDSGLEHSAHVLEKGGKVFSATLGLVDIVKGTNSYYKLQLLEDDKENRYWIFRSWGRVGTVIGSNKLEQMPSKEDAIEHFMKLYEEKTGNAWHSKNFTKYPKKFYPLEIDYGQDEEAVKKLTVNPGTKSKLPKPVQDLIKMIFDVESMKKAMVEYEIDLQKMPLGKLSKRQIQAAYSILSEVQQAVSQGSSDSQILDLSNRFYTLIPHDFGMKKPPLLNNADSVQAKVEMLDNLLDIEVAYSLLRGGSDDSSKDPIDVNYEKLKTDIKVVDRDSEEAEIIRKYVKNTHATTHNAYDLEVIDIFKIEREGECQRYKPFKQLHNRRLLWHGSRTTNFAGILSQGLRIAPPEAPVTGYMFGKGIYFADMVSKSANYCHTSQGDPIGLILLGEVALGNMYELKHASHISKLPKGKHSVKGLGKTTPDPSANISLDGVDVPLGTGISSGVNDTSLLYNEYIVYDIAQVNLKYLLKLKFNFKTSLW

What was measured:
[1] = target: Histone-lysine N-methyltransferase EZH2 (Homo sapiens) (UniProt Q15910)
[2] = target: Histone-lysine N-methyltransferase EZH2 (Homo sapiens) (UniProt Q15910); remark: listed apart in the source
[3] = target: Poly [ADP-ribose] polymerase 1 (Homo sapiens) (UniProt P09874); conditions: dose 20.0 nM, time 70.0 min
[4] = target: Poly [ADP-ribose] polymerase 1 (Homo sapiens) (UniProt P09874); conditions: dose 100.0 nM, time 70.0 min

Row | SMILES | Kdiss [1] | Ka [2] | inhibition [3] | inhibition [4]
1 | CC[C@H](C)n1cc(C)c2c(C(=O)NCc3c(C)cc(C)[nH]c3=O)cc(-c3ccc(N4CCNCC4)nc3)cc21 [GSK2816126] | 0.035 s⁻¹ | 5.83 10^5/M/s | – | –
2 | CCn1ccc2c(C(=O)NCc3c(C)cc(C)[nH]c3=O)cc(-c3ccc(Cc4nc5c(C(N)=O)cccc5[nH]4)cc3)cc21 | – | – | 2.12% | 11.4%
3 | CC(=O)Nc1cc(-c2ccc(-c3nc4c(C(N)=O)cccc4[nH]3)cc2)cc(C(=O)NCc2c(C)cc(C)[nH]c2=O)c1C | – | – | 25.9% | 39%
4 | CCNc1cc(-c2ccc(Cc3nc4c(C(N)=O)cccc4[nH]3)cc2)cc(C(=O)NCc2c(C)cc(C)[nH]c2=O)c1C | – | – | – | 42.1%
5 | Cc1cc(C)c(CNC(=O)c2cc(-c3ccc(-c4nc5c(C(N)=O)cccc5[nH]4)cc3)cc3c2ccn3C(C)C)c(=O)[nH]1 | – | – | 15.7% | 17.2%
6 | CCn1ncc2c(C(=O)NCc3c(C)cc(C)[nH]c3=O)cc(-c3ccc(-c4nc5c(C(N)=O)cccc5[nH]4)cc3)cc21 | – | – | 2.52% | 20.4%
7 | CCNc1cc(-c2ccc(-c3nc4c(C(N)=O)cccc4[nH]3)cc2)cc(C(=O)NCc2c(C)cc(C)[nH]c2=O)c1C | – | – | 9.04% | 33.9%
8 | CC(=O)Nc1cc(-c2ccc(Cc3nc4c(C(N)=O)cccc4[nH]3)cc2)cc(C(=O)NCc2c(C)cc(C)[nH]c2=O)c1C | – | – | 8.53% | 36.5%
9 | Cc1cc(C)c(CNC(=O)c2cc(-c3ccc(Cc4nc5c(C(N)=O)cccc5[nH]4)cc3)cc3c2cnn3C(C)C)c(=O)[nH]1 | – | – | 42.1% | 68.3%
10 | CCC(=O)Nc1cc(-c2ccc(-c3nc4c(C(N)=O)cccc4[nH]3)cc2)cc(C(=O)NCc2c(C)cc(C)[nH]c2=O)c1C | – | – | 12.2% | 47.9%
